Laboratory results from patent publication US20030036631A1 (published 2003).

Target: T1, SHP-1 from cell lysates (UniProt P29350)
T1 construct: Detected on the blot with mouse anti-SHP-1
Experiment: GST pull-down from cell lysates, Western blot with anti-SHP-1
Description: To determine if the cytoplasmic domain of Siglec-10 binds SHP-1 and SHP-2 in cell lysates, 10 μg of GST fusion protein +/−tyrosine phosphorylation were incubated with 300 μl of cell lysate (Triton-X-100-soluble fraction 5×10⁷ unstimulated cells) at 4° C. overnight. The GST fusion protein complexes were captured with 50 μl of glutathione-sepharose beads (Amersham Pharmacia Biotech) for 1 hr at 4° C. The beads were then incubated with Jurkat cell lysates. The beads were washed three times with ice cold lysis buffer, and bound proteins were eluted in SDS reducing sample buffer and resolved by electrophoresis on an SDS-polyacrylamide gel. The separated proteins were transferred to nitrocellulose by standard western blotting techniques. The blots were then stained for proteins containing phosphorylated tyrosines using anti-P-Y HRP-conjugated antibody (Clone 4G10, Upstate Biotechnology, Lake Placid, N.Y.). Blots were then stripped and stained with either mouse anti-SHP-1 (Transduction Laboratories, Lexington, Ky.) or mouse anti-SHP-2 (Transduction Laboratories) followed by an HRP-conjugated secondary antibody (goat anti-mouse, Biosource Int., Camarillo, Calif.) Stained proteins were imaged by adding a chemiluminescent detection reagent (Renaissance, NEN Bio Products, Boston, Mass.) and exposing to film (Kodak).

B1: Y667F mutant of the GST-SIGLEC-BMS-L3 cytoplasmic tail, as used in the SHP pull-down (other)
chain: MSPILGYWKIKGLVQPTRLLLEYLEEKYEEHLYERDEGDKWRNKKFELGLEFPNLPYYIDGDVKLTQSMAIIRYIADKHNMLGGCPKERAEISMLEGAVLDIRYGVSRIAYSKDFETLKVDFLSKLPEMLKMFEDRLCHKTYLNGDHVTHPDFMLYDALDVVLYMDPMCLDAFPKLVCFKKRIEAIPQIDKYLKSSKYIAWPLQGWQATFGGGDHPPKSDLVPRGSPNSKRRTQTETPRPRFSRHSTILDYINVVPTAGPLAQKKATPNSPRTPLPPGAPSPESKKNQKKQYQLPSFPEPKSSTQAPESQESQEELHFATLNFPGVRPRPEARMPKGTQADYAEVKFQ
modifications: tyrosine phosphorylated (GST fusion protein +/- tyrosine phosphorylation); the phosphorylated sites are not listed
notes: The same construct as m3, as used in the pull-down from cell lysates; also called Y667F mutant sample; L3cyto-Y667F
B1: no binding.
